In patent publication US20240398947A1, “CAR T-CELL ADJUVANT THERAPIES” (CytoAgents, Inc., priority 2020, published 2024):

Tested on: CRS
Test: Mouse model of CAR T-cell therapy induced CRS (Raji-luc tumor)
Settings: IP, BID for 7 days, start about 5 hours prior to CAR-T cell transfer

`CC#CC[C@H](C)[C@H](O)/C=C/[C@@H]1[C@H]2c3cccc(CCCC(=O)[O-])c3O[C@H]2C[C@H]1O.[Na+]` [GP1681, esuberaprost sodium salt] was tested. Which “undesired cytokine production versus control group” value did it give?
Its value is “lower”.
